The text below walks through data of article PMC3794980, “Identification of Conserved and HLA Promiscuous DENV3 T-Cell Epitopes” (PLoS Neglected Tropical Diseases, 2013).

Some targets named below: DRB1*0802 (Homo sapiens, UniProt P01903+P01911, A100R/A103L/A169T/F76Y/H45Y/I96F/K41T/L162R/M171V/P40S/Q125H/Q178H/Q39Y/Q99D/R218S/R42G/S66Y/V115G/W38E); DRB1*0301 (Homo sapiens, UniProt P01903+P01911, A100K/A102G/A103R/A169T/F55Y/I96L/K41T/L162R/M171V/P40S/Q125H/Q178H/Q39Y/R42S/S66N/T106N/T262R/W38E/Y61H); DRB1*0405 (Homo sapiens, UniProt P01903+P01911, A100R/A169T/D86S/F76Y/I96L/K127E/L162R/M171V/N62H/P40V/Q125Y/R42H/S133A/S149N/S66Y/V115G/V209L/W38E); DRB1*0701 (Homo sapiens, UniProt P01903+P01911, A100R/A102G/A103Q/D57E/D86V/E43K/F76Y/K127E/L162R/M171V/P40G/Q125H/Q99D/R33Q/R42Y/R54Q/S133A/S66F/T210M/V115G/Y107V/Y59L/Y89S); DRB1*0901 (Homo sapiens, UniProt P01903+P01911, A100R/A103E/D57H/D86V/F55Y/F60I/F76Y/I96F/K127E/L162R/M171V/P40D/Q125H/Q99R/R33Q/R42F/S133A/S66N/T210M/V115G/W38K/Y107V/Y59G/Y89S); DRB1*1501 (Homo sapiens, UniProt P01903+P01911); DRB1*1101 (Homo sapiens, UniProt P01903+P01911, A100R/A169T/A87E/I96F/K41T/L162R/M171V/P40S/Q125H/Q178H/Q39Y/Q99D/R42S/S66Y/T262R/V115G/W38E); DRB1*1302 (Homo sapiens, UniProt P01903+P01911, A100E/A169T/K41T/L162R/M171V/P40S/Q125H/Q178H/Q39Y/Q99D/R42S/S66N/T262R/V115G/W38E/Y61H); DRB1*0404 (Homo sapiens, UniProt P01903+P01911, A100R/A169T/F76Y/I96L/K127E/L162R/M171V/N62H/P40V/Q125Y/R42H/S133A/S149N/S66Y/V209L/W38E); DRB1*0401 (Homo sapiens, UniProt P01903+P01911, A100K/A169T/F76Y/I96L/K127E/L162R/M171V/N62H/P40V/Q125Y/R42H/S133A/S149N/S66Y/V115G/V209L/W38E); DRB1*0101 (Homo sapiens, UniProt P01903+P01911, A100R/D57E/F55L/F60I/F76Y/I96L/L162R/M171V/P40L/Q125E/R42F/V115G/Y59C).

Common to all, as to assay: biochemical
Format in all cases: binding

Setting [1] is: read-out: Binding Affinity (nM) DRB1*0405.
[2] abbreviates: read-out: Binding Affinity (nM) DRB1*1302.
Setting [3] is: competitive inhibition of radiolabeled standard peptide, '-' distinct from ND, read-out: Binding Affinity (nM) DRB1*0901.
[4] abbreviates: read-out: Binding Affinity (nM) DRB1*1101.
The mark [5] stands for this setting: competitive inhibition of radiolabeled standard peptide, '-' distinct from ND, read-out: Binding Affinity (nM) DRB1*1302.
The mark [6] stands for this setting: read-out: Binding Affinity (nM) DRB1*0404.

Where two headings read alike, the source gives them in different places. Some results are limits rather than exact numbers.

With `CC[C@H](C)[C@H](NC(=O)[C@H](CC(C)C)NC(=O)[C@H](CCC(=O)O)NC(=O)[C@@H](N)Cc1c[nH]cn1)C(=O)N[C@@H](CCSC)C(=O)N[C@@H](CCCCN)C(=O)N[C@@H](CC(=O)O)C(=O)NCC(=O)N[C@@H](CCCNC(=N)N)C(=O)N[C@@H](CCCCN)C(=O)N[C@@H](CC(C)C)C(=O)N[C@H](C(=O)N[C@H](C(=O)N1CCC[C@H]1C(=O)N[C@@H](CS)C(=O)N[C@@H](CCCNC(=N)N)C(=O)O)C(C)C)C(C)C` [NS5 714-729], the IC50 is 2.29 µM against DRB1*0802; 37 nM at DRB1*0301; over 20000 nM at DRB1*0405 (setting [1]); 2.85 µM at DRB1*0701; 690 nM on DRB1*0901 (competitive inhibition of radiolabeled standard peptide, DRB1*0901, read-out: Binding Affinity (nM) DRB1*0901); 0.066 µM at DRB1*1501. The IC50 against DRB1*1101 is 671 nM; on DRB1*1302 (competitive inhibition of radiolabeled standard peptide, DRB1*1302, read-out: Binding Affinity (nM) DRB1*1302), 11 nM; against DRB1*0404 it was 14100 nM; on DRB1*0401, 6950 nM; at DRB1*0101, 0.015 µM.
Take `CC(C)[C@H](N)C(=O)N[C@H](C(=O)N[C@@H](Cc1ccccc1)C(=O)N[C@@H](CCCCN)C(=O)N[C@@H](CC(N)=O)C(=O)N[C@@H](C)C(=O)N[C@@H](Cc1c[nH]cn1)C(=O)N[C@@H](C)C(=O)N[C@@H](CCCCN)C(=O)N[C@@H](CCCCN)C(=O)N1CCC[C@H]1C(=O)N[C@@H](CCC(=O)O)C(=O)N[C@H](C(=O)N[C@H](C(=O)N[C@H](C(=O)O)C(C)C)C(C)C)C(C)C)[C@@H](C)O` [Envelope 236-250]: the IC50 against DRB1*0802 worked out at 0.419 µM; at DRB1*0301 it was 9090 nM; at DRB1*0405 it was 8610 nM; on DRB1*0701 it was 0.56 µM; against DRB1*0901, 1520 nM; against DRB1*1101, 10200 nM. Moreover, the IC50 on DRB1*1302 (setting [2]) is over 20000 nM; on DRB1*0404 it was 8860 nM; at DRB1*0401 (read-out: Binding Affinity (nM) DRB1*0401), over 20000 nM; against DRB1*0101, 0.34 µM.
Regarding `CC[C@H](C)[C@H](NC(=O)[C@H](CCC(=O)O)NC(=O)[C@@H](NC(=O)[C@H](C)NC(=O)CNC(=O)[C@@H](NC(=O)[C@H](CC(C)C)NC(=O)[C@H](C)N)[C@@H](C)O)[C@@H](C)O)C(=O)N[C@@H](CCC(N)=O)C(=O)N[C@@H](CC(N)=O)C(=O)N[C@@H](CO)C(=O)NCC(=O)NCC(=O)N[C@H](C(=O)N[C@@H](CO)C(=O)O)[C@@H](C)O` [Envelope 261-275], the IC50 against DRB1*0802 is 2.37 µM; at DRB1*0301, 6300 nM; at DRB1*0405 (setting [1]), over 20000 nM; at DRB1*0901 (setting [3]), 14100 nM; at DRB1*1501, 9.9 µM; on DRB1*1101 (setting [4]) it was over 20000 nM. The IC50 worked out at 4170 nM at DRB1*1302 (setting [5]), 13900 nM against DRB1*0404, 5020 nM against DRB1*0401 and 5.52 µM against DRB1*0101.
In the case of `CC[C@H](C)[C@H](NC(=O)[C@@H](NC(=O)[C@@H]1CCCN1C(=O)[C@@H](N)CO)[C@@H](C)CC)C(=O)N[C@@H](CC(N)=O)C(=O)N[C@@H](CCCNC(=N)N)C(=O)N[C@@H](CCC(=O)O)C(=O)NCC(=O)N[C@@H](CCCCN)C(=O)N[C@H](C(=O)N[C@H](C(=O)NCC(=O)N[C@@H](CC(C)C)C(=O)N[C@@H](Cc1ccc(O)cc1)C(=O)NCC(=O)O)C(C)C)C(C)C` [NS3 137-151], the IC50 stood at 3.21 µM at DRB1*0802; 11200 nM at DRB1*0405; 12.6 µM against DRB1*0701; 7520 nM on DRB1*0901 (setting [3]); 0.502 µM against DRB1*1501; 3510 nM on DRB1*1302 (setting [5]). Further, the IC50 is over 20000 nM on DRB1*0404 (setting [6]), 4380 nM at DRB1*0401 and 0.843 µM on DRB1*0101.
Turning to `CC[C@H](C)[C@H](NC(=O)[C@H](CC(=O)O)NC(=O)[C@H](CCSC)NC(=O)[C@@H](N)C(C)C)C(=O)N[C@H](C(=O)N[C@@H](CO)C(=O)N[C@@H](CCCNC(=N)N)C(=O)N[C@@H](CCCCN)C(=O)N[C@@H](CC(=O)O)C(=O)N[C@@H](CCC(N)=O)C(=O)N[C@@H](CCCNC(=N)N)C(=O)NCC(=O)N[C@@H](CO)C(=O)NCC(=O)N[C@@H](CCC(N)=O)C(=O)N[C@H](C(=O)NCC(=O)O)C(C)C)[C@@H](C)CC` [NS5 588-604], the IC50 is 5.75 µM against DRB1*0802; over 20000 nM on DRB1*0405 (setting [1]); 17.1 µM against DRB1*0701; over 20000 nM on DRB1*0901 (read-out: Binding Affinity (nM) DRB1*0901); 2.38 µM against DRB1*1501; 124 nM on DRB1*1101. Moreover, the IC50 is 4530 nM against DRB1*1302, over 20000 nM on DRB1*0404 (setting [6]), 5720 nM against DRB1*0401 and 13.4 µM on DRB1*0101.
With `CC[C@H](C)[C@H](NC(=O)CNC(=O)[C@@H](NC(=O)[C@@H](NC(=O)[C@@H](NC(=O)[C@H](CC(N)=O)NC(=O)[C@H](CO)NC(=O)[C@H](CCC(=O)O)NC(=O)CNC(=O)[C@H](Cc1ccccc1)NC(=O)[C@@H]1CCCN1C(=O)[C@@H]1CCCN1C(=O)[C@H](CCC(=O)O)NC(=O)[C@H](C)NC(=O)[C@@H](N)CCC(=O)O)[C@@H](C)CC)C(C)C)[C@@H](C)CC)C(=O)O` [Envelope 366-380], the IC50 is 0.762 µM against DRB1*0802; 14900 nM against DRB1*0301; 3590 nM on DRB1*0405; 0.552 µM against DRB1*0701; 2780 nM on DRB1*0901 (setting [3]); over 20000 nM at DRB1*1101 (setting [4]). The IC50 against DRB1*0404 amounted to 8930 nM; against DRB1*0401, 7080 nM; against DRB1*0101, 1.04 µM.
`CC[C@H](C)[C@H](NC(=O)[C@H](CCC(=O)O)NC(=O)CNC(=O)[C@H](CCCNC(=N)N)NC(=O)[C@H](CCCCN)NC(=O)[C@@H](N)CC(C)C)C(=O)N[C@H](C(=O)N[C@@H](Cc1c[nH]cn1)C(=O)N[C@@H](Cc1c[nH]cn1)C(=O)N[C@@H](C)C(=O)N[C@H](C(=O)N[C@@H](CO)C(=O)N[C@@H](CCCNC(=N)N)C(=O)NCC(=O)N[C@@H](CO)C(=O)N[C@@H](C)C(=O)N[C@@H](CCCCN)C(=O)O)C(C)C)[C@@H](C)O` [NS5 45-61]: the IC50 against DRB1*0802 is 2.47 µM; against DRB1*0301 it was 13200 nM; on DRB1*0701, 0.453 µM; against DRB1*0901, 376 nM; at DRB1*1501, 0.044 µM; at DRB1*1302 (setting [2]) it was over 20000 nM. Also, the IC50 is 645 nM at DRB1*0404, 4 nM against DRB1*0401 and 3.86 µM against DRB1*0101.
`CC[C@H](C)[C@H](NC(=O)[C@H](C)NC(=O)CNC(=O)[C@@H](NC(=O)[C@H](CCC(=O)O)NC(=O)CNC(=O)[C@@H](NC(=O)[C@@H](NC(=O)[C@@H](NC(=O)[C@H](CCC(N)=O)NC(=O)[C@H](Cc1ccccc1)NC(=O)[C@@H](NC(=O)CNC(=O)[C@@H]1CCCN1)[C@@H](C)O)[C@@H](C)O)[C@@H](C)O)[C@@H](C)O)[C@@H](C)CC)C(=O)N[C@@H](C)C(=O)O` [NS3 113-127]: the IC50 is 7.89 µM on DRB1*0802; over 20000 nM on DRB1*0301 (read-out: Binding Affinity (nM) DRB1*0301); 3930 nM against DRB1*0405; 333 nM at DRB1*0901 (setting [3]); 3.04 µM at DRB1*1501; 231 nM against DRB1*1101. Moreover, the IC50 amounted to 7560 nM at DRB1*1302 (setting [5]), 2080 nM against DRB1*0404, 18 nM against DRB1*0401 and 0.226 µM on DRB1*0101.
